Laboratory results taken from patent EP2330125A2 (priority 2005, dated 2007).

Biological target: calcitonin receptor
Settings: read-out: Receptor Binding Assay CT

With “^29βAla-βAla-Exendin(1-28),hAmylin(1-7)-^11,18Arg-sCt(8-27)-hAmylin(33-37) [Compound 14]” the IC50 was 100 pM.
